Protein sequences, listed by entry. Tags and fused reporters are not part of them.
UniProt Q8NER1, whole entry: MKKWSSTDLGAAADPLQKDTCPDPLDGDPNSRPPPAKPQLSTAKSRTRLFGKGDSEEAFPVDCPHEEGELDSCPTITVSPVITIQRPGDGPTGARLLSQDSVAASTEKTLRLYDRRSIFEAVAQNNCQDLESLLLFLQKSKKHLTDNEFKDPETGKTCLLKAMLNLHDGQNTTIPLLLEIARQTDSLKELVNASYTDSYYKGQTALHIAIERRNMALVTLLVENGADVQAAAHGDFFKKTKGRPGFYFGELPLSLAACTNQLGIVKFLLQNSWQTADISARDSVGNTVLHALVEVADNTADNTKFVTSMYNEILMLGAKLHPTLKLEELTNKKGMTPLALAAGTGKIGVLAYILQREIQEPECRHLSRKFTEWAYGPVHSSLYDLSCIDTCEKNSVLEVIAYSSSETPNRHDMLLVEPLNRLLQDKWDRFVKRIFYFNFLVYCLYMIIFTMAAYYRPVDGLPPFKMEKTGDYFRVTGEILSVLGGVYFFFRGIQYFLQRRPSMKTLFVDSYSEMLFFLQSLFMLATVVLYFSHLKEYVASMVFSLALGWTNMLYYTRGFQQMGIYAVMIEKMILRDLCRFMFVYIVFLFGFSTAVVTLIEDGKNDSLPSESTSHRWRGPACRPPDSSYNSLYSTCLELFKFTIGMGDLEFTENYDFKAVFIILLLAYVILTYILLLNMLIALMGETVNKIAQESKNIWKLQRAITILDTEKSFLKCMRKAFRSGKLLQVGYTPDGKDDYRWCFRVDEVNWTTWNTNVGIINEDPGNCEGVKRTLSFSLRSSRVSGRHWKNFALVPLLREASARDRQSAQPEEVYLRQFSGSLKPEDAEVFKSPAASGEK

According to ChEMBL document CHEMBL2384950, “2-(3-Fluoro-4-methylsulfonylaminophenyl)propanamides as potent TRPV1 antagonists: structure activity relationships of the 2-oxy pyridine C-region” (Eur J Med Chem, 2013):

Biological target: Transient receptor potential cation channel subfamily V member 1 (Homo sapiens, UniProt Q8NER1)
Test: Antagonist activity at human TRPV1 expressed in CHOK1 cells assessed as inhibition of pH 6 to 6.3-induced activity by FLIPR assay
Assay type: cell-based, CHO-K1

CCCCOc1nc(C(F)(F)F)ccc1CNC(=O)C(C)c1ccc(NS(C)(=O)=O)c(F)c1 (stereo unspecified)
pIC50: 7.52

pIC50: −log10 of the molar value.
